Assay outcomes: PubChem BioAssay, Broad Institute
MITF act = activators of MITF-driven TRPM1 promoter activity in SK-MEL-5 cells; SK-MEL-5 TRPM1-promoter luciferase, 24 h; % of positive control, neutral wells = 0; activation, % at 12.5 µM; 300,000 tested, 0.75% active; AID 588334;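 active means mean activation of at least 80% with every replicate also reaching 80%; inconclusive means mean reaches 80% but some replicate falls short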;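 further: 0% = neutral control wells and 100% = parthenolide positive control wells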
Wnt act = Wnt/beta-catenin pathway activation. Wnt/beta-catenin reporter cell assay, activator, plate reader. activation, % at 9.35 µM. 300,000 tested, 1.2% active; in the data active means activation above about 30%, passing the limit was not always enough; inconclusive means no clear call, values can overlap the other calls;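 further: 0% = neutral control wells and 100% = positive control wells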
TRPM1 prom inh = MITF TRPM1 promoter inhibition in SK-MEL-5 cells; SK-MEL-5 TRPM1 promoter luciferase, 24 h; inhibition, % at 12.5 µM; 330,000 tested, 0.83% active;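 active means mean inhibition across replicates of 60% or more, whatever share of single replicates reaches that level; inconclusive means some that reach 60%, reason not given; inactive means mean inhibition across replicates below 60%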
UUG fidelity = alters start codon recognition fidelity in yeast; S. cerevisiae UUG-firefly luciferase reporter, luminescence/redox ratio; activity score, % at 18.7 µM; actives 0.13% (n = 350,000); AID 602363;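 active = replicate mean at a twofold rise or more, about +100% in these data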;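 also: firefly luciferase made from a UUG start codon reports start codon fidelity; reporter light over untreated wells divided by growth signal over untreated wells; some hits fall short of that in this replicate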
miR122 inh = miR-122 inhibition in Huh7 cells; activation (reporter increase), % at 12.5 µM; Huh7 miR-122 Renilla luciferase sensor, 48 h; neutral wells = 0, positive control = 100; AID 602342; 340,000 tested, 0.3% active;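 active means mean replicate activation score at least 90 and every replicate individually at or above 90; inconclusive means only one of the two criteria met; inactive means neither criterion met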;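 further: higher luciferase means less miR-122 activity so hits act as miR-122 inhibitors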
PGC1a acetyl inh = modulators of PGC1a acetylation; U2OS PGC1a acetylation, AlphaScreen anti-acetyl-lysine; with virally co-expressed GCN5 acetyltransferase; inhibition, % at 15.6 µM; 350,000 tested, 0.17% active; AID 651687;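 active means every replicate shows inhibition of at least 40%; inconclusive means mean inhibition at least 40% but some replicate below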;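 further: 0% = neutral control wells and 100% = positive control wells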
Active calls of the source: *; ? = inconclusive; / = not tested or not shown; [ ] = another dose, or the depositor's remark. This is a sample that favours compounds with a hit; in the whole collection about 2.1% have one here.

Key to letters: A = MITF act; B = Wnt act; C = TRPM1 prom inh; D = UUG fidelity; E = miR122 inh; F = PGC1a acetyl inh
CC(=O)N1CCN(c2ccc(NC(=O)c3ccc(Br)o3)cc2Cl)CC1
  A: -14; B: 1; C: 16; D: -15; E: 11; F: 19

O=C(Nc1cccc(Cl)c1N1CCCC1)c1ccc([N+](=O)[O-])o1
  A: -22; B: 2; C: 23; D: -19; E: -2; F: 4

CCN1CCN(c2c(Cl)cccc2NC(=O)c2ccc([N+](=O)[O-])o2)CC1
  A: -101; B: 0; C: 102*; D: -5; E: 5; F: /

O=C(Nc1ccccc1N1CCCCC1)c1ccc([N+](=O)[O-])o1
  A: -26; B: -3; C: 27; D: -15; E: -2; F: -18

CC(C)C(=O)N1CCN(c2ccc(NC(=O)c3ccc([N+](=O)[O-])o3)cc2)CC1
  A: -91; B: 0; C: 92*; D: /; E: /; F: /

CC(C)C(=O)N1CCN(c2ccc(NC(=O)c3ccc(Br)o3)cc2)CC1
  A: 18; B: -7; C: -14; D: -34; E: -4; F: -40

CCCC(=O)N1CCN(c2ccc(NC(=O)c3ccc([N+](=O)[O-])o3)cc2Cl)CC1
  A: -90; B: -22; C: 91*; D: /; E: /; F: 27

COc1ccc2c3c(n(C)c2c1)[C@H](CO)N(Cc1nccs1)CC31CCN(C(C)=O)CC1
  A: /; B: /; C: /; D: /; E: /; F: -9

CCCNC(=O)[C@@H]1[C@@H](CO)[C@@H]2Cn3c(ccc(C4=CCCCC4)c3=O)[C@H]1N2Cc1cocn1
  A: /; B: /; C: /; D: 0; E: 5[16.7 µM]; F: /

O=C(Nc1ccc(N2CCOCC2)c(Cl)c1)c1ccc([N+](=O)[O-])o1
  A: -63; B: -25; C: ?; D: /; E: /; F: /

CN1CCN(c2ccc(NC(=O)c3ccc([N+](=O)[O-])o3)cc2Cl)CC1
  A: -79; B: -16; C: 79*; D: -13; E: /; F: /

O=C1CCN(Cc2ccccc2)CCN1CCOc1ccccc1
  A: 85*; B: 13; C: -80; D: -8; E: /; F: /

CC(C)CN1CCC(=O)N(CCSc2ccccc2)CC1
  A: 73; B: 42*; C: -80; D: -12; E: 2; F: 4

O=C(O)c1ccccc1CN1C[C@H]2O[C@H](CNS(=O)(=O)c3ccc(Cl)cc3)CC[C@H]21
  A: /; B: /; C: /; D: /; E: /; F: 0

CCCCN1CCc2c([nH]c3ccc(C)cc23)C1=O
  A: 67; B: 37*; C: -72; D: -8; E: /; F: 0

Cc1nc(NC(=S)Nc2ccccc2)sc1C
  A: 54; B: 80*; C: -51; D: /; E: /; F: /

CCc1nnc(NC(=S)Nc2ccccc2)s1
  A: 59; B: 20; C: -54; D: /; E: /; F: /

CN1C(=O)c2cc(NC(=O)c3ccc(F)cc3)ccc2OC[C@@H]2O[C@H](CC(=O)N3CCOCC3)CC[C@H]21
  A: /; B: /; C: /; D: 7; E: 6[16.7 µM]; F: -1

COc1cc([C@@H]2c3cc4c(cc3[C@@H](O[C@@H]3O[C@@H]5CO[C@@H](C)O[C@H]5[C@H](O)[C@H]3O)[C@H]3COC(=O)[C@H]23)OCO4)cc(OC)c1O
  A: -14; B: 2; C: 17; D: -13; E: 2; F: -17

COc1cc(C2c3cc4c(cc3C(OC3OC5COC(c6cccs6)OC5C(O)C3O)C3COC(=O)C23)OCO4)cc(OC)c1O (stereo not given)
  A: -75; B: 16; C: 76*; D: -5; E: -10; F: /

COc1cc([C@@H]2c3cc4c(cc3[C@H](O)[C@H]3COC(=O)[C@H]23)OCO4)cc(OC)c1OC
  A: -59; B: -20; C: 61*; D: -5; E: 19; F: -2

Cc1c(C)c2cccnc2c2ncccc12
  A: -83; B: /; C: 83*; D: -52; E: /; F: /

COc1ccc(C(=O)/C(C#N)=N/Nc2ccc([N+](=O)[O-])cc2)cc1
  A: -70; B: -7; C: 72*; D: /; E: 12; F: 6

CCCn1nnc(NC(=O)c2ccc(Br)cc2)n1
  A: 57; B: -4; C: -49; D: 5; E: /; F: 1

CCCn1nnc(NC(=O)c2ccc(-c3ccccc3)cc2)n1
  A: 92*; B: 29; C: -93; D: -14; E: -5; F: 4

COC(=O)c1cnn(-c2cc(Oc3ccccc3)ncn2)c1N
  A: 59; B: /; C: -56; D: -8; E: -6; F: 1

NC(=O)c1cnn(-c2cc(Oc3ccccc3)ncn2)c1N
  A: 87*; B: 8; C: -86; D: -15; E: -1; F: -11

O=C(C[C@H]1C[C@@H]2c3cc(NC(=O)NC4CCCC4)ccc3O[C@@H]2[C@@H](CO)O1)NCc1ccncc1
  A: /; B: /; C: /; D: /; E: -4[16.7 µM]; F: -3

O=C1C=CC(=O)N1c1ccccc1N1C(=O)C=CC1=O
  A: -94; B: 0; C: 94*; D: -20; E: 31; F: -39

O=C(c1ccccc1)c1ccccc1N1C(=O)C=CC1=O
  A: /; B: -12; C: 43; D: /; E: /; F: -33

One compound at a time (already shown). Order of values: MITF act	Wnt act	TRPM1 prom inh	UUG fidelity	miR122 inh	PGC1a acetyl inh
Entry for Cc1c(C)c2cccnc2c2ncccc12 = -83	/	83*	-52	/	/
Entry for CCCn1nnc(NC(=O)c2ccc(-c3ccccc3)cc2)n1 = 92*	29	-93	-14	-5	4

Next section
Key to letters: A = MITF act; B = Wnt act; C = TRPM1 prom inh; D = UUG fidelity; E = miR122 inh; F = PGC1a acetyl inh
O=C(COn1nnc2ccc(Cl)cc21)NC12CC3CC(CC(C3)C1)C2
  A: -5; B: /; C: 2; D: /; E: -3; F: 85*

O=C(C[C@H]1CC[C@H](NS(=O)(=O)c2ccc(F)cc2)[C@@H](CO)O1)NCc1ccc(Cl)c(Cl)c1
  A: /; B: /; C: /; D: /; E: -5[16.7 µM]; F: 7

Clc1nc(Nc2ccccc2)nc(Nc2ccccc2)n1
  A: 21; B: 49*; C: -18; D: -10; E: 2; F: 15

Cc1cc(CNC(=O)c2cc(COc3ccc(F)c(F)c3)on2)nn1C
  A: 86*; B: 29; C: -86; D: 6; E: -5; F: /

Cc1cc(C)n(CC(C)NC(=O)c2cc(COc3ccc(F)c(F)c3)on2)n1 (stereo not given)
  A: 67; B: 12; C: -62; D: -12; E: 7; F: 14

C[C@@H]1CCCCO[C@@H](CN(C)Cc2ccncc2)[C@H](C)CN([C@@H](C)CO)C(=O)c2cc(NC(=O)NC3CCCCC3)ccc2O1
  A: /; B: /; C: /; D: -3; E: 0[16.7 µM]; F: 15

O=C1[C@@H]2[C@@H](CC(COc3ccccc3)=C([C@H](O)c3ccccc3)[C@@H]2CO)C(=O)N1Cc1ccccc1
  A: /; B: /; C: /; D: /; E: /; F: 10

C[C@H](CO)N1C[C@H](C)[C@H](CN(C)C(=O)c2ccc(F)cc2)Oc2cc(C3=CCCCC3)ccc2S1(=O)=O
  A: /; B: /; C: /; D: 12; E: 11[16.7 µM]; F: 17

CN(C)/C=C(\C#N)C(=O)Nc1ccc(F)c(Cl)c1
  A: /; B: 37*; C: -53; D: /; E: /; F: /

CN(C)/C=C(\C#N)C(=O)Nc1ccc(F)cc1
  A: 56; B: /; C: -52; D: -22; E: 3; F: -14

Part of the list above in a different format.
Fields: MITF act, Wnt act, TRPM1 prom inh, UUG fidelity, miR122 inh, PGC1a acetyl inh
- O=C(COn1nnc2ccc(Cl)cc21)NC12CC3CC(CC(C3)C1)C2
→ -5, /, 2, /, -3, 85*
- O=C(C[C@H]1CC[C@H](NS(=O)(=O)c2ccc(F)cc2)[C@@H](CO)O1)NCc1ccc(Cl)c(Cl)c1
→ /, /, /, /, -5[16.7 µM], 7

(more compounds)
Key to letters: A = MITF act; B = Wnt act; C = TRPM1 prom inh; D = UUG fidelity; E = miR122 inh; F = PGC1a acetyl inh
CC(C)NC(=O)Nc1ccc2c(c1)C(=O)N([C@H](C)CO)C[C@H](C)[C@@H](CN(C)S(=O)(=O)c1cn(C)cn1)OCCCC[C@@H](C)O2
  A: /; B: /; C: /; D: -18; E: -2[16.7 µM]; F: 1

CC1(C)CN=c2s/c(=C\c3ccc(Cl)cc3)c(=O)n2C1
  A: 117*; B: -1; C: -116; D: -5; E: -1; F: 5

CSC1=N/C(=C\c2ccc(Cl)cc2)C(=O)N1N(C)C
  A: /; B: 3; C: 7; D: -2; E: -5; F: 9

N#C/C(=C(/O)c1cccs1)c1nc2ccccc2[nH]1
  A: 8; B: 10; C: -7; D: -32; E: 4; F: -22

O=c1[nH]c2ccccc2nc1-c1cccs1
  A: /; B: 43*; C: -49; D: -20; E: -1; F: -13

O/C(=C\c1nc2ccccc2[nH]1)c1cccs1
  A: 6; B: 39*; C: -6; D: -28; E: 2; F: /

O=c1[nH]c2ccccc2nc1/C=C(\O)c1cccs1
  A: 35; B: 37*; C: -28; D: /; E: /; F: /

O=c1oc2ccc(Cl)cc2nc1/C=C(\O)c1cccs1
  A: /; B: -9; C: 2; D: /; E: /; F: -13

Cc1ccc2oc(=O)c(/C=C(\O)c3cccs3)nc2c1
  A: /; B: 35*; C: -13; D: /; E: /; F: 9

O=C(C[C@@H]1CC[C@H](NC(=O)Nc2ccc(F)cc2)[C@@H](CO)O1)NCCN1CCCC1
  A: /; B: /; C: /; D: 2; E: /; F: -9
